Binding of CDR-mutated scFvs to a peptide of the spike HR2 region

The measurements come from Li et al. 2023 (doi:10.1038/s41467-023-39022-2) through the FLAb antibody collection.

Target peptide (SARS-CoV-2 spike, HR2 region): PDVDLGDISGINAS

Parent: Ab-14, a human scFv built as VH, a (GGGGS)3 linker, VL. Only the CDRs of the light chain vary.
VH: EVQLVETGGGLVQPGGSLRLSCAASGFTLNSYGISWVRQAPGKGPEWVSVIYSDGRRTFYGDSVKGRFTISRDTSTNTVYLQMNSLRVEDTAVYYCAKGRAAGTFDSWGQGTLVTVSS
VL: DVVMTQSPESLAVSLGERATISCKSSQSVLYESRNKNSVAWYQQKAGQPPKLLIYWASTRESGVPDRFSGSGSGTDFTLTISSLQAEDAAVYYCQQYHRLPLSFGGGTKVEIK

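Designed CDR sequences, proposed from the first random library and measured here. Several design methods are mixed in this list. Affinity was read by AlphaSeq, a pooled yeast mating assay with surface-displayed partners. Mating (16 h, 30 °C) was followed by selection of diploids and sequencing of their barcodes. The ratio of observed to expected reads was calibrated, replicate by replicate, on BCL2-family standards whose Kd was known from biolayer interferometry. Each pool was mated in six replicate cultures.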

Each variant is given by its three light chain CDRs, as the data file delimits them; those of the parent are KSSQSVLYESRNKNSVA, WASTRES, QQYHRLPLS. Variants here have at most six changes. Values are apparent Kd, the geometric mean of the replicates that gave a signal; lower means stronger binding. An entry "no signal" has no value in the source: the pair was not observed among the diploids in any replicate. This suggests poor binding but is not conclusive. The parent sequence was in this pool as ten entries: three were never detected, three once, and four in most replicates, with averages from 2.2 nM to 240 nM. Three control strains display no target. For all light chain designs, 4% of the pairings with them gave a signal, with a median of 430 nM and one signal in twenty below 38 nM, so weak values seen in few replicates may be background. For each scFv, signals with the empty controls are counted beside the result. A sequence measured in both rounds can read differently, since the two assays cover different ranges. In the paper, a design with two or fewer of six values counts as a poor binder.

The variant KSSQSVYYESRNKNSVA | DASTREL | QQYHRLPLS gave 3.2 nM (6 of 6 replicates; controls 1 of 18). The variant KISQSVLYESTNKNSVA | NASTRES | QQYHRLPLS gave 830 pM (6 of 6 replicates; controls 3 of 18). The variant KLSQSFLMESRNKNSVA | EASTRES | QQYHRLPLS gave 830 pM (6 of 6 replicates; controls 1 of 18). The variant KLSQSVLYESRNKNSVA | NASQRCS | QQYHRLPLS showed 1.7 nM (6 of 6 replicates; controls 0 of 18). The variant KSSQSVLYESRIKNSVA | WASTRPY | QQYHYLPLS gave no signal (0 of 6 replicates; controls 2 of 18).

For KSSISYLYESNNKNSVA | AASTRES | QQYHRLPLS, the assay gave 1.0 nM (6 of 6 replicates; controls 0 of 18). The variant KYSQSQGYESRNQWSVA | NASTRES | QQYHRLPLS gave 800 pM (6 of 6 replicates; controls 2 of 18). The variant KSSQSVLYESRLSNSVA | WAYTRES | QQYHRLPLS gave no signal (0 of 6 replicates; controls 0 of 18). For KVSQSHLYESRNKNSVA | DASTRES | QQYHRLPLS, the assay gave 570 pM (6 of 6 replicates; controls 0 of 18). With KFSQSVLYESRTSNDVA | NASTRES | QQYHRLPLS the result was 2.8 nM (6 of 6 replicates; controls 1 of 18).

For KSSISYLCESRNKNSVA | EASTRES | QQYHRLPLS, the assay gave 6.3 nM (6 of 6 replicates; controls 0 of 18). For KLLQSVLYESRNKNSVA | GASTRES | QQYHRLPLS, the assay gave 750 pM (6 of 6 replicates; controls 1 of 18). The variant KLSQSELYESRNKNSVA | EASTREM | QQYHRLPLS gave 2.0 nM (6 of 6 replicates; controls 1 of 18). The variant KSSQSSLYESRNKNSVA | EASTRES | QQYHRLPLS showed 2.2 nM (6 of 6 replicates; controls 1 of 18). The variant CSSPVVLYESRNKNSVI | NASTRES | QQYHRLMLS gave no signal (0 of 6 replicates; controls 0 of 18).

The variant KSSQSVLYESRNKNSVA | WASTRES | EQYHRLPLS gave no signal (0 of 6 replicates; controls 0 of 18). The variant KLSQSVLYDSRNKNSVA | NASTRES | QQYHRLPLS showed 300 pM (6 of 6 replicates; controls 0 of 18). The variant KQSQSVLYESRNKNAVA | MASTRES | QQYHRLPLS gave 29 nM (5 of 6 replicates; controls 0 of 18). The variant KLPNSTLYESRQKNSVA | AASTRES | QQYHRLPLS gave 1.9 nM (6 of 6 replicates; controls 1 of 18). The variant KLPQSTLYESRNKNSVA | AASTRES | QQYHRLPLS showed 770 pM (6 of 6 replicates; controls 0 of 18).

For KLSQSVLYESRNKNNVA | EASTRSS | QQYHRLPLS, the assay gave 760 pM (6 of 6 replicates; controls 0 of 18). For KSSQSVLYESRNKNSVA | MASTRES | QQKHRLPLS, the assay gave no signal (0 of 6 replicates; controls 0 of 18). With KSSQSVLYESPNKNSVA | WASTRES | QQYHHLPLS the result was 110 nM (5 of 6 replicates; controls 1 of 18). With KSSQSVLYESENKNSVA | WAYTRES | QQYHRLPLS the result was 83 nM (5 of 6 replicates; controls 0 of 18). The variant KTGQGVLYESRNKNSVA | GASQRES | QQYHRLPLS showed 890 pM (6 of 6 replicates; controls 1 of 18).

The variant KPSQGVLYESRNKNSVA | RASTRES | QQYHRLPLS showed 13 nM (6 of 6 replicates; controls 0 of 18). With KSSPSVLYESRNKNSVA | WASTRES | QCYHRLPLS the result was 25 nM (1 of 6 replicates; controls 0 of 18). For KVSQSVLYEQRNKNSVA | EASTRLS | QQYHRLPLS, the assay gave 1.2 nM (6 of 6 replicates; controls 2 of 18). With KSSQSVLMESMNKNSVA | HASQRIW | QQYHRLPLS the result was 8.9 nM (6 of 6 replicates; controls 1 of 18). The variant KSSQSHLYESRNTNSVA | WASHRES | QQYHILPLS showed 650 nM (2 of 6 replicates; controls 0 of 18).

For KSSQSVLYESRDKNSVA | QASTRES | QQYHRLPLS, the assay gave 3.7 nM (6 of 6 replicates; controls 1 of 18). The variant KISQSVLYESSNKNSVA | WASTRES | QQYHRLPLG gave 10 nM (6 of 6 replicates; controls 0 of 18). With KVQQSVPYESRNKNSVA | NASQRES | QQYHRLPLS the result was 890 pM (6 of 6 replicates; controls 1 of 18). With KSSQSVRYESLNKNSVA | WASTRES | QDYDRLPLS the result was no signal (0 of 6 replicates; controls 0 of 18). The variant KLSQMVDYESRNKNNVA | EASTRMS | QQYHRLPLS showed 2.1 nM (6 of 6 replicates; controls 1 of 18).

Top 4 of the variants detected in all replicates, tightest first:

CDR-L1,CDR-L2,CDR-L3,Kd (apparent),detected,empty controls
KLSQSVLYDSRNKNSVA,NASTRES,QQYHRLPLS,300 pM,6/6,0/18
KVSQSHLYESRNKNSVA,DASTRES,QQYHRLPLS,570 pM,6/6,0/18
KLLQSVLYESRNKNSVA,GASTRES,QQYHRLPLS,750 pM,6/6,1/18
KLSQSVLYESRNKNNVA,EASTRSS,QQYHRLPLS,760 pM,6/6,0/18